Measurements reported in patent US11638712B2, “Bis(acetamidophenyl) guanidinophenylethylphosphonates for use in the prevention and/or treatment of PAR-related diseases” (Universiteit Antwerpen, priority 2016, dated 2023).

Columns and labels:
uPA = uPA (Homo sapiens, UniProt P00749); test: in vitro serine protease inhibition profile: uPA; assay type: biochemical
post-colitis rats = test: post-colitis rat model for visceral pain, visceromotor response (VMR) to colorectal distension; settings: not tested; stated from correlation with matriptase, tryptase, cathepsin G IC50
Protocol: Male Sprague-Dawley rats (200-225 g; Charles River, Italy) were used in all experiments. Rats were housed at a constant room temperature (22±2° C.) and humidity (60%). The animals had unlimited access to water and food and were kept on a 12 h:12 h day-night cycle. They were allowed to acclimatize for at least 1 week before the start of the experiments.
In this set-up, a mild colitis was induced in the post-colitis group on day 0, using a TNBS-enema. The control group received an intrarectal administration with 0.9% NaCl. The presence of colitis was verified by a colonoscopy on day 3. From day 10 onwards, a colonoscopy was performed every 4 days to follow-up the healing of the colonic mucosa. […]
Electromyographic (EMG) electrodes were implanted into the external abdominal muscle and 3 days later, the VMR experiment was performed in conscious rats. […] The VMR was quantified using the area under the curve (AUC) of the EMG signal during the distension (20 s) corrected for the EMG signal before the distension (20 s).
22.0. The results of the VMR experiments analyzed using a Generalized Estimating Equations (GEE) test with Least Significant Difference (LSD) post-hoc test. […]
Visceral sensitivity was assessed using the visceromotor responses (VMRs) to a colorectal distension, shown in the graphs below as area under the curve (AUC; y-axis; μV.20 s-1) for each distension pressure (x-axis; mmHg). […]

## COC(=O)NC(Cc1ccc(NC(=N)N)cc1)P(=O)(Oc1ccc(NC(C)=O)cc1)Oc1ccc(NC(C)=O)cc1 (centres unmarked) [Compound 2]
uPA
  IC50: 3 nM
post-colitis rats
  therapeutic effect in visceral pain, expected from IC50 correlation: will probably also show the same therapeutic effect
